## Binding of CDR-mutated scFvs to a peptide of the spike HR2 region

The measurements come from Li et al. 2023 (doi:10.1038/s41467-023-39022-2) through the FLAb antibody collection.

Target: peptide PDVDLGDISGINAS, taken from heptad repeat 2 (HR2) of SARS-CoV-2 spike.

Parent scFv Ab-14: VH joined to VL by a 15-residue (Gly4Ser)3 linker. Changes lie in the light chain CDRs alone.
VH: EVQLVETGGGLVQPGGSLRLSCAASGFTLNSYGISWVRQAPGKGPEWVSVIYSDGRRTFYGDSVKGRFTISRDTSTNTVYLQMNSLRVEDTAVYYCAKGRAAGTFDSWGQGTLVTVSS
VL: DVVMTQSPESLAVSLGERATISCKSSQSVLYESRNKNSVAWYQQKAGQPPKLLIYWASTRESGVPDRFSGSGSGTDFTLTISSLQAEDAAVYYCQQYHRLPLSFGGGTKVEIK

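The parent was found by panning a naive human phage display library on the peptide. This is the validation round: designs drawn from the data on random variants, tested in the same kind of assay. Their group label is 14L_GP_Gen (GP: Gaussian process model; Gen: genetic algorithm; a sequence that several methods proposed may carry one label only). The scFvs were displayed on barcoded MATa yeast, the peptide on MATalpha yeast. Binding brings cells together so that they mate, and sequencing counts the barcode pairs among the diploids. Each replicate has its own calibration line, from reference interactions of the BCL2 family. There are six technical replicates.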

Each variant is given by its three light chain CDRs, as the data file delimits them; those of the parent are KSSQSVLYESRNKNSVA, WASTRES, QQYHRLPLS.
The read-out is the apparent dissociation constant on a log10 scale (nM): the lower, the stronger.
A sequence measured in both rounds can read differently, since the two assays cover different ranges.
Background: pairings of all light chain designs with three empty control strains gave a value in 4% of cases (median 2.64, 5th percentile 1.59). Values in that range, when seen in few replicates, are hard to tell from nonspecific mating. Also given: how often the same scFv was detected with the empty control strains, with their mean in brackets.
In the paper, a design with two or fewer of six values counts as a poor binder.

CDR-L1,CDR-L2,CDR-L3,"replicates, log10 nM",signal with controls
KFPQSQLYESRNKNSVA,NASTRES,QQYHRLPLS,-0.37 -0.35 -0.52 -0.57 -0.46 -0.40,0/18
KLQQSDLYESRNKNSVA,NASQRES,QQYHRLPLS,-0.07 -0.09 -0.50 -0.63 -0.57 -0.29,0/18
KVSQSVLYEERNKNSVA,NASTRMS,QQYHRLPLS,0.31 0.28 0.11 0.13 0.06 0.28,2/18 (3.65)
KLQQSELYESRNKNSVA,NASQRED,QQYHRLPLS,-0.21 -0.17 -0.40 -0.33 -0.19 -0.13,3/18 (2.48)
KLPQSVLYESRNKNSVA,HASTRMS,QQYHRLPLS,0.39 0.36 0.26 0.16 0.48 0.35,1/18 (3.30)
KLKQSVLYESRNKNSVA,NASQRES,QQYHRLPLS,-0.63 -0.73 -0.76 -1.03 -0.97 -0.82,0/18
KLSQSELYESRAKNSVA,NASQRES,QQYHRLPLS,0.23 0.26 0.44 0.34 0.27 0.53,1/18 (2.75)
KLSQSMLYESRNKNSVA,NASTRED,QQYHRLPLS,-0.63 -0.74 -0.86 -0.46 -0.46 -0.60,0/18
KVSQSNLYESRNKNSVA,NASTRES,QQYHRLPLM,0.15 0.09 0.05 -0.01 0.04 0.09,2/18 (2.17)
KLSQSNLYESRNKNSVA,NASTRCS,QQYHRLPLS,-0.09 -0.03 -0.25 -0.28 -0.12 -0.09,1/18 (2.10)
KVSPSNLYESRNKNSVA,NASTRES,QQYHRLPLS,0.33 0.06 0.17 -0.10 0.04 0.11,2/18 (2.54)
KLYQSELYESRNKNSVA,NASTRMS,QQYHRLPLS,0.67 0.58 0.74 0.41 0.45 0.48,0/18
KLEQSVLYESRNKNNVA,NASTRES,QQYHRLPLS,-0.36 -0.43 -0.32 -0.57 -0.45 -0.42,1/18 (2.00)
KLSQSVGYESRNKNSVA,QASTRES,QQYHRLPLS,0.47 0.24 0.33 0.15 0.29 0.31,1/18 (3.54)
KLYQSFLYESRNKNSVA,NASQRES,QQYHRLPLS,0.02 0.03 -0.21 -0.39 -0.30 -0.18,4/18 (2.70)
KHSQSDLYESRNKNSVA,EASTRES,QQYHRLPLS,0.47 0.70 0.56 0.18 0.39 0.50,1/18 (4.10)
KVSQSNPYESRNKNSVA,NASTRES,QQYHRLPLS,0.93 0.67 0.63 0.44 0.26 0.84,0/18
KLSQSWLYESRVKNSVA,NASTRES,QQYHRLPLS,-0.32 -0.16 -0.56 -0.20 0.01 -0.07,2/18 (2.42)
KLSQSVLYESRNKNSVA,NASTRMA,QQYHRLPLS,-0.28 -0.51 -0.55 -0.59 -0.36 -0.50,1/18 (1.72)
KLSQSVLYESRNKNSVA,DASTRES,QQYHRLPLM,-0.30 -0.27 -0.36 -0.35 -0.43 -0.22,0/18
FLSQSWLYESRNKNSVA,NASTRES,QQYHRLPLS,0.14 0.04 -0.28 -0.12 -0.09 0.17,1/18 (2.69)
KLSQSVLMESRNKNSVA,EASTRES,QDYHRLPLS,-0.01 -0.06 -0.18 -0.17 -0.27 0.00,1/18 (3.56)
KLQQSELYESRNKNSVA,NASQRMS,QQYHRLPLS,0.16 0.41 0.28 0.17 0.30 0.26,1/18 (2.38)
KLSQSVLYESRNKNSVA,HASQRLS,QQYHRLPLS,0.52 0.31 0.57 0.40 0.61 0.68,0/18
KLPQSELYESRNKNSVA,EASTRES,QQYHRLPLS,0.10 0.28 0.10 0.05 0.27 0.45,0/18
KFSQSVLYEQRNKNSVA,EASTRES,QQYHRLPLS,-0.32 -0.35 -0.40 -0.52 -0.46 -0.11,0/18
KLSFSWLYESRNKNSVA,EASTRES,QQYHRLPLS,0.28 0.45 -0.07 0.11 -0.02 0.61,0/18
KLDQSVLYESRNKNSVA,DASTRCS,QQYHRLPLS,-0.09 -0.08 -0.05 -0.31 -0.23 0.14,2/18 (2.21)
KSSQSELYESRNKNSVA,NASYRES,QQYHRLPLS,0.24 0.13 -0.09 -0.37 -0.18 0.03,3/18 (3.77)
KVSQSHLYESRNKNSVA,QASQRES,QQYHRLPLS,0.74 0.64 0.74 0.59 0.37 0.92,1/18 (2.36)
KISQSVLYESRNKNSVA,EGSTRES,QQYHRLPLS,-0.09 -0.18 -0.36 -0.40 -0.34 -0.09,4/18 (2.70)
KLEQSWLYESRNKNSVA,NASLRES,QQYHRLPLS,0.22 0.25 0.07 0.01 0.06 0.32,1/18 (3.26)
KVSESVLYESRNKNSVA,EASTRES,QQYHRLPLS,0.44 -0.09 -0.20 -0.30 0.18 -0.02,1/18 (2.18)
KLPQSVLYESRNKNSVA,NGSTRES,QQYHRLPLS,-0.19 -0.33 -0.12 -0.17 -0.12 0.05,0/18
KLSQSVLYESRQKNSVA,NASQREQ,QQYHRLPLS,-0.35 -0.63 -0.62 -0.57 -0.50 -0.37,0/18
FLSQSWLYESRNKNSVA,NASTRMS,QQYHRLPLS,0.20 0.22 -0.06 0.12 0.23 0.36,1/18 (2.16)
KVSQSELYESRNKNSVA,NASQREQ,QQYHRLPLS,0.34 0.16 0.15 0.17 0.19 0.28,5/18 (3.70)
KLSQSDLYESRNKNSVA,NASTRES,QDYHRLPLS,-0.07 -0.18 -0.34 -0.54 -0.52 -0.19,2/18 (3.32)
KLSQSVLYESRNKNSVA,NASTRET,QQYHRLPLS,-0.19 -0.13 -0.36 -0.40 -0.41 -0.27,1/18 (2.52)
KLSQSELYESRNKNSVA,NASTRED,QQYHRLPLS,-0.28 -0.48 -0.42 -0.40 -0.37 -0.26,1/18 (0.76)
KLSQSDDYESRNKNSVA,NASTRES,QQYHRLPLS,1.17 1.02 1.18 0.33 1.11 1.29,0/18
KVSQSNLYESRNKNSVA,NASTREV,QQYHRLPLS,-0.21 -0.37 -0.37 -0.56 -0.63 -0.19,1/18 (2.06)
KLSMSWLYESRNKNSVA,NASTRMS,QQYHRLPLS,-0.03 0.02 -0.05 -0.10 -0.13 0.08,2/18 (3.00)
KSSQSVLYESRNFNSVA,DASTRES,QQYHRLPLS,0.10 -0.08 -0.22 -0.21 -0.16 0.12,0/18
KLSQSVEYESRNKNSVA,NASTREQ,QQYHRLPLS,-0.21 -0.31 -0.41 -0.24 -0.39 -0.19,3/18 (3.63)
KLSQSWLYESRNKNSVA,GASTRES,QQYHRLPLS,-0.20 -0.29 -0.31 -0.54 -0.33 -0.23,1/18 (2.43)
KLSQSELYESRMKNSVA,NASERES,QQYHRLPLS,0.01 -0.10 -0.11 -0.12 -0.07 0.21,1/18 (3.19)
KVSQSYLYEQRNKNSVA,NASTRES,QQYHRLPLS,0.17 0.56 0.05 -0.08 0.17 0.13,0/18
KLSQSNLYESRNKNSVA,NASTRMS,QQYHRLPLS,0.42 0.26 0.47 0.23 0.32 0.37,0/18
KLSQSVLYEDRVKNSVA,NASTRES,QQYHRLPLS,0.16 -0.35 -0.16 -0.23 -0.39 -0.06,0/18
KMPQSELYESRNKNSVA,NASTRES,QQYHRLPLS,-0.24 -0.37 -0.51 -0.50 -0.32 -0.22,1/18 (3.19)
KLSQSELYESRNKNSVA,DASQRES,QQYHRLPLS,-0.12 -0.31 -0.59 -0.53 -0.55 -0.51,0/18

The last 3 entries again:

CDR-L1,CDR-L2,CDR-L3,"replicates, log10 nM",signal with controls
KLSQSVLYEDRVKNSVA,NASTRES,QQYHRLPLS,0.16 -0.35 -0.16 -0.23 -0.39 -0.06,0/18
KMPQSELYESRNKNSVA,NASTRES,QQYHRLPLS,-0.24 -0.37 -0.51 -0.50 -0.32 -0.22,1/18 (3.19)
KLSQSELYESRNKNSVA,DASQRES,QQYHRLPLS,-0.12 -0.31 -0.59 -0.53 -0.55 -0.51,0/18